Results taken from EP4831173A1, “TYK2 INHIBITOR AND USE THEROF” (dated 2026).

Amino acid sequences for entries named in this document (tags omitted). Residues count along the entry.
UniProt P29597, 589-875 limits assumed: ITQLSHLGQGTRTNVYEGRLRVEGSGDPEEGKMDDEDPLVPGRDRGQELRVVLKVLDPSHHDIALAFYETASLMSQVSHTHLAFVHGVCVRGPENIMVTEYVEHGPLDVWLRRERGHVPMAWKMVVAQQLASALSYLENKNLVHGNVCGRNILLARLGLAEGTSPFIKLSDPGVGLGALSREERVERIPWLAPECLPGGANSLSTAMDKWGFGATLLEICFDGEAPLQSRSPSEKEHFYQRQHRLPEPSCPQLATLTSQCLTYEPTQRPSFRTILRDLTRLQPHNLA
UniProt P29597, whole entry: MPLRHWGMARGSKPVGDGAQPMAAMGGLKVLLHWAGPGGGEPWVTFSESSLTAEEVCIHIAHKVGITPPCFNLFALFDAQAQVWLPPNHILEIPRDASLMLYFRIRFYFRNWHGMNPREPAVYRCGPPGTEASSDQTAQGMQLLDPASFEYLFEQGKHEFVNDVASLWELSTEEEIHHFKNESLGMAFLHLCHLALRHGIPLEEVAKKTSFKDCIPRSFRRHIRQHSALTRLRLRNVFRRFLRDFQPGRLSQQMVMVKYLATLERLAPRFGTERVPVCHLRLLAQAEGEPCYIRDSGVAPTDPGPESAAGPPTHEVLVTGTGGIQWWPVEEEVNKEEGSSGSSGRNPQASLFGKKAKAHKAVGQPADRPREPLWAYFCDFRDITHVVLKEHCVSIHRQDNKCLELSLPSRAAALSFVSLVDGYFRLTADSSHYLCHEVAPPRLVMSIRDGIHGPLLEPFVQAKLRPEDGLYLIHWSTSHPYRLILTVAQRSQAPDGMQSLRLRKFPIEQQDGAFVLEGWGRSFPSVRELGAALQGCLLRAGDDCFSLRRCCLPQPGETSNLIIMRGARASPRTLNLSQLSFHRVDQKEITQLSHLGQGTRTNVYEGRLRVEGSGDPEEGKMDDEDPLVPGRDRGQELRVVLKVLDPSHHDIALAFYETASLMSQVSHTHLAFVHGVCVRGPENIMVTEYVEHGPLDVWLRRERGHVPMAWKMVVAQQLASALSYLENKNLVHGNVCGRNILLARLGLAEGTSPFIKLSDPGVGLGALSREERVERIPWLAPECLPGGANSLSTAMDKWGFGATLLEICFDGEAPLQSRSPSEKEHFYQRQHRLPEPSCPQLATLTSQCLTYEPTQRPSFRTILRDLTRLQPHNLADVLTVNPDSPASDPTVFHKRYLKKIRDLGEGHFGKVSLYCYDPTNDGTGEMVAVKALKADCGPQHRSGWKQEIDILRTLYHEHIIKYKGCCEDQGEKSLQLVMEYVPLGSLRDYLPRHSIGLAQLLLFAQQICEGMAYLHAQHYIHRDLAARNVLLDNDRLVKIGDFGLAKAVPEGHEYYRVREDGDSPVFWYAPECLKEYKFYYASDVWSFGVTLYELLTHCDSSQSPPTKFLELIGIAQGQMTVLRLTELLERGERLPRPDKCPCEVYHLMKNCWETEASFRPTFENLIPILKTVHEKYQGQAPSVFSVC
UniProt P29597, 897-1176 limits assumed: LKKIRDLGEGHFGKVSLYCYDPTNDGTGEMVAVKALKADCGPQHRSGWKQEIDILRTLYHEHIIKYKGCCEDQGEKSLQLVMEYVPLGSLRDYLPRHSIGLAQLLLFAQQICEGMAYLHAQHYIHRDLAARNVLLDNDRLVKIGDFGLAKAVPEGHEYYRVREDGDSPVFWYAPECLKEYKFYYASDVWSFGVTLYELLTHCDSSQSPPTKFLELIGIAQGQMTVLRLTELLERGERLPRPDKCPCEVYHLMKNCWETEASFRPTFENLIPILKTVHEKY
UniProt O60674, 849-1124 limits assumed: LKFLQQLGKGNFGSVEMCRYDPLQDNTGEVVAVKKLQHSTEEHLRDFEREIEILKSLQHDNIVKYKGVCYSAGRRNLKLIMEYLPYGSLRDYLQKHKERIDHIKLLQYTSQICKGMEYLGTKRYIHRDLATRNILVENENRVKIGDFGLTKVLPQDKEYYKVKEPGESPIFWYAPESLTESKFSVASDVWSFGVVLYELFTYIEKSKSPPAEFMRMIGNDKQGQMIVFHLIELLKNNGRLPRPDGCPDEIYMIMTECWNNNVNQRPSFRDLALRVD
UniProt P23458, whole entry partner: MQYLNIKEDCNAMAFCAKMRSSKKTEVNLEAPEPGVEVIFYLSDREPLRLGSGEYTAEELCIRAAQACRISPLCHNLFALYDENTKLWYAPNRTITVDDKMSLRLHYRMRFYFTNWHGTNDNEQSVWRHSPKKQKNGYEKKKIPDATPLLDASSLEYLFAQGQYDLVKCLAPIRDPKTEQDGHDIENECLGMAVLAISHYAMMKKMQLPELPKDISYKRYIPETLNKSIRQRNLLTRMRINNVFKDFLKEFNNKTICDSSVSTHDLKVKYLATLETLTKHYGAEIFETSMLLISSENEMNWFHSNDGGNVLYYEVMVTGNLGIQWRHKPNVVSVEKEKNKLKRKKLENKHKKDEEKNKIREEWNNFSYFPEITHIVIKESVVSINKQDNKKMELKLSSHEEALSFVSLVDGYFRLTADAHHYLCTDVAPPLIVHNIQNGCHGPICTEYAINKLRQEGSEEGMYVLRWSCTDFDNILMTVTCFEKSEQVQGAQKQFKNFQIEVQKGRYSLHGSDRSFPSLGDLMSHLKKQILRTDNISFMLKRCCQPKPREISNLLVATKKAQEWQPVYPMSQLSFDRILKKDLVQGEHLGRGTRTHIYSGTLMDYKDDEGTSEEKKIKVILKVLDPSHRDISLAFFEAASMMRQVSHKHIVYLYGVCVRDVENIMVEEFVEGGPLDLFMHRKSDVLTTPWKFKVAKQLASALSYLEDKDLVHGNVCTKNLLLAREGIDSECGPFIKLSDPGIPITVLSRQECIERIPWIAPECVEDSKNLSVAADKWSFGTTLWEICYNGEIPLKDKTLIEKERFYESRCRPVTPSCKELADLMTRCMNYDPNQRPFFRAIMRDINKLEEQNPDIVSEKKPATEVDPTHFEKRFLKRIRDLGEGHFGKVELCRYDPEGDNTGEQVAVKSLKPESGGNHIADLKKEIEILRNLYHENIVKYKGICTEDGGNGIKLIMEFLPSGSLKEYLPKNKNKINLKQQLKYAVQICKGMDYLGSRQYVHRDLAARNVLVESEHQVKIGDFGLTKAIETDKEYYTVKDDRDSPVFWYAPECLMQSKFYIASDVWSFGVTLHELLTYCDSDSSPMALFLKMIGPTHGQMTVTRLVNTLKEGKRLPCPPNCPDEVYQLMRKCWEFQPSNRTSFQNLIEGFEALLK
UniProt P23458, 875-1153 limits assumed: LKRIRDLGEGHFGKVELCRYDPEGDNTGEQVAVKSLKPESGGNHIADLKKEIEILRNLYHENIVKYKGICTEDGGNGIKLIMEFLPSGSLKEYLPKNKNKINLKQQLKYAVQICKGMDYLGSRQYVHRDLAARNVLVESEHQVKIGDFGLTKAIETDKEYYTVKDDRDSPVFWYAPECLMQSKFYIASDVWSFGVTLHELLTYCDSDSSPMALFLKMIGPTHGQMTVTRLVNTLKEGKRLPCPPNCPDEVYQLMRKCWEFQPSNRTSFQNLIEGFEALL
UniProt P52333, 822-1111 limits assumed: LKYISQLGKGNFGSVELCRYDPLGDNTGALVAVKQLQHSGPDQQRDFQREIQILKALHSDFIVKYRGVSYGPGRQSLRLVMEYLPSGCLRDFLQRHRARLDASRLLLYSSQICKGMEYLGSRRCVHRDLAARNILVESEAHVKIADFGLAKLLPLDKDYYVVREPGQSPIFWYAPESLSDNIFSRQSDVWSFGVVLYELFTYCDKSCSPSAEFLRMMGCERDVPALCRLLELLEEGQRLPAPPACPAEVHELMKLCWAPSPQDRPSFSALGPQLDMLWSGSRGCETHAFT

Assays:
TYK2/JAK1 = TYK2/JAK1 (Homo sapiens, UniProt P29597); assay: TYK2/JAK1 cell activity by IFNα2B stimulation, SEAP reporter in HEK-blue IFNα/β cells; conditions: HEK-blue IFNα/β cell line, human IFNα2B 1 U/mL, 24 hours, SEAP absorbance at 630 nm
Method: Experimental Example 3: Analysis of TYK2/JAKI cell activity by IFNα2B stimulation
An inhibition effect of TYK2/JAK1 activity of the test compound was analyzed using HEK-blue IFNα/β cell line (InvivoGen) that secretes SEAP (Secreted embryonic alkaline phosphatase) depending on the degree of cell stimulation. Cell culture and evaluation were performed according to the manufacturer's recommendations, and the method thereof is as follows: Cells cultured in a growth medium (Dulbecco's Modified Eagle Medium, 10% Fetal bovine serum, 1% Penicillin-Streptomycin, 100 ug/mL Normocin, 10 mg/mL Blasticidin, […] Zeocin) were collected and resuspended in a test medium (DMEM, 10% FBS, 1% Penicillin-Streptomycin), and 3.5x10^4 cells (160 uL) were dispensed into each well of a 96-well plate. After culturing for 24 hours in a 37°C CO2 incubator, 20 uL of a test compound or control compound (Deucravacitinib) diluted in the test medium was added, and then incubated at 37°C for 1 hour and 30 minutes. Next, 20 uL of human IFNα2B recombinant protein (PBL assay science) prepared with the test medium was added to each well (final concentration 1 U/mL) and then incubated at 37°C for 24 hours. 20 uL and 180 uL of cell supernatant were mixed with a QUANTI-blue reagent (InvivoGen) and then reacted at 37°C for 20-30 minutes. An absorbance at 630 nm was measured using Synergy neo (BioTek Instruments, Inc.). […] [Table 3] Result of TYK2/JAK1 cell activity by IFNα2B stimulation test

TYK2 pseudokinase domain = TYK2 pseudokinase domain (Homo sapiens, UniProt P29597); assay: TYK2 JH2 pseudokinase domain binding affinity, fluorescence polarization (BPS Bioscience inhibitor screening kit); conditions: read-out: TYK2 JH2 IC50; polarized fluorescence, 25°C, 1 hour
Method: Experimental Example 1: Analysis of domain binding affinity to TYK2 pseudokinase
In order analyze the binding affinity of a test compound to the TYK2 pseudokinase domain, a polarized fluorescence-based TYK2 JH2 Pseudokinase Domain Inhibitor Screening Assay Kit (BPS bioscience) was used. The evaluation of the compound was performed according to the manufacturer's protocol, and the method thereof is as follows:
The test compound or control compound (Deucravacitnib) was serially diluted in DMSO, and then diluted 1/10 with distilled water to prepare 10x compound solution. After mixing the compound solution with Probe 1 prepared with a binding reaction buffer (JH2 binding buffer), a reaction was performed at 25°C for 10 minutes. Next, the reaction was initiated by adding a TYK2 pseudokinase domain enzyme prepared with the binding reaction buffer. The reaction was performed in a black 384-well plate at 25 °C for 1 hour. Polarized fluorescence was measured using Synergy neo (BioTek Instruments, Inc.).

JAK2 JH1 = JAK2 JH1 (Homo sapiens, UniProt O60674); assay: JAK kinase domain activity, ADP-Glo kinase assay, JAK2; conditions: read-out: JAK2 JH1 IC50, substrate IGF1R peptide, top concentration 10000 nM
Method: (§1) Experimental Example 2: JAK Kinase Domain Activity Analysis
(§2) Kinase domain activity of the JAK family was analyzed using the ADP-Glo kinase assay kit (Promega). The evaluation of the compound was performed according to the manufacturer's protocol, and the method thereof is as follows:
(§3) A 10 mM test compound was diluted to 0.5 mM using DMSO in a 96-well plate, and then 5-fold serial dilutions were performed in DMSO. The diluted compound was diluted to 1/10 with 1x reaction buffer (composition) to prepare a 5x compound solution. 5 uL of the 5x compound solution was mixed with a substrate prepared in the reaction buffer (40 mM Tris, 20 mM MgCl2 and 0.1 mg/ml BSA, 0.05 mM DTT, pH 7.5), and an ATP mixture (10 uL). Next, an enzyme reaction was initiated by adding the JAK family enzyme (10 uL) prepared in the reaction buffer. A short rotation was performed to settle all the solution to the bottom of the plate. The final concentrations of the test compounds in the reaction mixture were 10000, 2000, 400, 80, 16, and 3.2 nM. The concentrations of the control compounds (Brepocitinib or Tofacitinib) were 10 times lower. The enzyme reaction was performed at 25°C for 1 hour. 25 uL of ADP-Glo reagent was added and the reaction was performed at 25 °C for 1 hour. The reaction mixed 50 uL of kinase detection reagent and was stopped, and a luminescence signal was measured using Synergy neo (BioTek Instruments, Inc.). […]

JAK1 JH1 = JAK1 JH1 (Homo sapiens, UniProt P23458); assay: JAK kinase domain activity, ADP-Glo kinase assay, JAK1; conditions: read-out: JAK1 JH1 IC50, substrate IRS1 (Y608) peptide, top concentration 10000 nM
Method: as §1, §2, §3

JAK3 JH1 = JAK3 JH1 (Homo sapiens, UniProt P52333); assay: JAK kinase domain activity, ADP-Glo kinase assay, JAK3; conditions: read-out: JAK3 JH1 IC50, substrate Poly (4:1 Glu-Tyr) peptide, top concentration 10000 nM
Method: as §1, §2, §3

TYK2 JH1 = TYK2 JH1 (Homo sapiens, UniProt P29597); assay: JAK kinase domain activity, ADP-Glo kinase assay, TYK2; conditions: read-out: TYK2 JH1 IC50, substrate IRS1 (Y608) peptide, top concentration 10000 nM
Method: as §1, §2, §3

Row | SMILES | IC50 (TYK2/JAK1) [nM] | IC50 (TYK2 pseudokinase domain) [nM] | IC50 (JAK2 JH1) [nM] | IC50 (JAK1 JH1) [nM] | IC50 (JAK3 JH1) [nM] | IC50 (TYK2 JH1) [nM]
1 | COC1CN(c2cc(-c3cn(CC4CC(F)(F)C4)c4cnc(NC(C)=O)cc34)nn([C@@H](C)C(F)(F)F)c2=O)C1 | < 50 | 21 | > 10000 |  |  | 
2 | CCn1cc(-c2cc(N3CC(OC)C3)c(=O)n([C@@H](C)C(F)(F)F)n2)c2cc(NC(C)=O)ncc21 | < 50 | 79 | > 10000 | > 10000 | > 10000 | > 10000
3 | CC(C)COc1cc(-c2cn(C3CCC3)c3cnc(NC(N)=O)cc23)nn(C2(C)CCC2)c1=O | < 50 | 32 | 6620 | > 10000 | > 10000 | > 10000
4 | CC(=O)Nc1cc2c(-c3cc(OCC(C)C)c(=O)n(C4(C)CCC4)n3)cn(C)c2cn1 | < 50 | 15 | 1040 | 2360 | > 10000 | 5060
5 | COC1CN(c2cc(-c3cn(C)c4cnc(NC(N)=O)cc34)nn(C3(C)CCOC3)c2=O)C1 (centres unmarked) | < 50 | 21 | 2190 | 7470 | 3990 | > 10000
6 | [2H]C([2H])([2H])C(=O)Nc1cc2c(-c3cc(OCC(C)(F)F)c(=O)n([C@@H](C)C(F)(F)F)n3)cn(C)c2cn1 | < 50 | 29 | 1190 | 3490 | > 10000 | > 10000
7 | CC(=O)Nc1cc2c(-c3cc(OCC(C)(F)F)c(=O)n([C@@H](C)C(F)(F)F)n3)cn(C)c2cn1 | < 50 | 29 | 1710 | 4100 | > 10000 | > 10000
8 | CC(=O)Nc1cc2c(-c3cc(OCC(C)C)c(=O)n(C(C)C(F)(F)F)n3)cn(C)c2cn1 (centres unmarked) | < 50 | 75 | 2820 | 6540 | > 10000 | > 10000
9 | COC1CN(c2cc(-c3cn(CCC(F)(F)F)c4cnc(NC(C)=O)cc34)nn([C@@H](C)C(F)(F)F)c2=O)C1 | < 50 | 29 | > 10000 |  |  | 
10 | CC(C)COc1cc(-c2cn(C3CCC3)c3cnc(NC(N)=O)cc23)nn(C(C)C)c1=O | < 50 | 26 | 9150 | > 10000 | > 10000 | > 10000
11 | [2H]C([2H])([2H])n1cc(-c2cc(OCC(C)(F)F)c(=O)n([C@@H](C)C(F)(F)F)n2)c2cc(NC(C)=O)ncc21 | < 50 | 32 | 1090 | 3000 | > 10000 | 7560
12 | CC(=O)Nc1cc2c(-c3cc(N4CCC5(COC5)C4)c(=O)n(C4(C)CCC4)n3)cn(C)c2cn1 | < 50 | 38 | 2380 | > 10000 | > 10000 | > 10000
13 | CC(=O)Nc1cc2c(-c3cc(OCC(C)(F)F)c(=O)n([C@@H](C)C(F)(F)F)n3)cn(CC3CC3)c2cn1 |  | 54 | > 10000 | > 10000 | > 10000 | > 10000
14 | CC(C)COc1cc(-c2cn(C)c3cnc(NC(N)=O)cc23)nn(C(C)C(F)(F)F)c1=O (centres unmarked) | < 50 | 22 | 553 | 814 | 3510 | 1460
15 | CCn1cc(-c2cc(OCC(C)(F)F)c(=O)n([C@@H](C)C(F)(F)F)n2)c2cc(NC(C)=O)ncc21 | < 50 | 22 | > 10000 | > 10000 | > 10000 | > 10000
16 | CC(=O)Nc1cc2c(-c3cc(OCC(C)(F)F)c(=O)n([C@@H](C)C(F)(F)F)n3)cn(C3CC4(COC4)C3)c2cn1 | < 50 | 20 | > 10000 | > 10000 | > 10000 | > 10000
17 | CC(=O)Nc1cc2c(-c3cc(C)c(=O)n(C4(C)CCOC4)n3)cn(C3CC(C#N)C3)c2cn1 (centres unmarked) | < 50 | 38 |  |  |  | 

Row | SMILES | IC50 (TYK2/JAK1) [nM] | IC50 (TYK2 pseudokinase domain) [nM] | IC50 (JAK2 JH1) [nM] | IC50 (JAK1 JH1) [nM] | IC50 (JAK3 JH1) [nM] | IC50 (TYK2 JH1) [nM]
18 | CC(=O)Nc1cc2c(-c3cc(OCC4COC4)c(=O)n(C4(C)CCC4)n3)cn(C)c2cn1 | 50 to 500 | 26 |  |  |  | 
19 | CC(=O)Nc1cc2c(-c3cc(OCC(C)C)c(=O)n([C@H](C)C(F)(F)F)n3)cn(C)c2cn1 | > 500 | 154 |  |  |  | 
20 | COC1CN(c2cc(-c3cn(C)c4cnc(NC(C)=O)cc34)nn(C(C)C(F)(F)F)c2=O)C1 (centres unmarked) | < 50 | 89 |  |  |  | 
21 | CC(=O)Nc1cc2c(-c3cc(OCC(C)(F)F)c(=O)n([C@@H](C)C(F)(F)F)n3)cn(C3CC4(CCOCC4)C3)c2cn1 | < 50 | 29 |  |  |  | 
22 | CCn1cc(-c2cc(N3CC(OC(C)C)C3)c(=O)n([C@@H](C)C(F)(F)F)n2)c2cc(NC(C)=O)ncc21 | < 50 | 42 |  |  |  | 
23 | COC1CN(c2cc(-c3cn(CC(C)(C)F)c4cnc(NC(C)=O)cc34)nn([C@@H](C)C(F)(F)F)c2=O)C1 | 50 to 500 | 57 |  |  |  | 
24 | CC(=O)Nc1cc2c(-c3cc(OCC(C)C)c(=O)n(C(C)(C)C)n3)cn(C)c2cn1 | 50 to 500 | 35 |  |  |  | 
25 | CC(=O)Nc1cc2c(-c3cc(OCCC(C)C)c(=O)n(C(C)C)n3)cn(C)c2cn1 | < 50 | 19 |  |  |  | 
26 | CC(=O)Nc1cc2c(-c3cc(OCC(C)(F)F)c(=O)n([C@@H](C)C(F)(F)F)n3)cn(C3CC(=O)C3)c2cn1 | 50 to 500 | 60 |  |  |  | 
27 | CC(=O)Nc1cc2c(-c3cc(N4CCC5(COC5)C4)c(=O)n([C@@H](C)C(F)(F)F)n3)cn(C3CC3)c2cn1 | < 50 | 73 |  |  |  | 
28 | CO[C@H](C)COc1cc(-c2cn(C3CC3)c3cnc(NC(C)=O)cc23)nn([C@@H](C)C(F)(F)F)c1=O | < 50 | 18 |  |  |  | 
29 | CC(=O)Nc1cc2c(-c3cc(OCC#N)c(=O)n(C4(C)CCC4)n3)cn(C)c2cn1 | 50 to 500 | 14 |  |  |  | 
30 | CC(=O)Nc1cc2c(-c3cc(OCC(F)(F)F)c(=O)n(C(C)C)n3)cn(C)c2cn1 | 50 to 500 | 21 |  |  |  | 
31 | CC(=O)Nc1cc2c(-c3cc(OCC(C)(F)F)c(=O)n([C@@H](C)C(F)(F)F)n3)cn(C(=O)C3CC3)c2cn1 | 50 to 500 | 46 |  |  |  | 
32 | CC(=O)Nc1cc2c(-c3cc(OCC(F)F)c(=O)n([C@@H](C)C(F)(F)F)n3)c[nH]c2cn1 | > 500 | 40 |  |  |  | 
33 | CCOc1cc(-c2cn(C3CC(C#N)C3)c3cnc(NC(C)=O)cc23)nn(C2(C)CCOC2)c1=O (centres unmarked) |  | 4 | 1820 | > 10000 | > 10000 | > 10000
34 | CCn1cc(-c2cc(OCCCF)c(=O)n([C@@H](C)C(F)(F)F)n2)c2cc(NC(C)=O)ncc21 | < 50 | 41 |  |  |  | 
